# System: NIH-3T3 viability, ATP luminescence
# Assay: murine fibroblast viability via ATP level – cell-based, murine fibroblasts, cytotoxicity control for Trypanosoma cruzi inhibitor project (AID 1159561)
# Conditions: 4 days
smiles,measurement,value
CC(C)(C)c1ccc(NC2(C(N)=O)CCN(Cc3ccccc3)CC2)cc1,IC50,10 µM
